# Measurements from patent US11186548B2 (priority 2017, dated 2021).
# Molecular target: human AChE (Homo sapiens, UniProt P22303)
# Experiment: AChE reactivation, modified Ellman's assay
# Type: biochemical
# Conditions: sarin adducted AChE, FIG. 22 and 27
smiles,measurement,value
C[C@@H](CN1CCCc2ccccc2C1)NC(=O)/C=N/O [LLNL-02],reactivation power of adducted AChE,less reactivation power than LLNL-03
